A selection: hits, their analogues and other compounds. The true share with any hit is near 2.1%.
miR122 inh = blocks miR-122 activity in Huh7 sensor cells; AID 602342; 340,000 tested, 0.3% active; activation (reporter increase), % at 12.5 µM; Huh7 miR-122 Renilla luciferase sensor, 48 h; neutral wells = 0, positive control = 100;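 active = mean replicate activation score at least 90 and every replicate individually at or above 90; inconclusive = only one of the two criteria met; inactive = neither criterion met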;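 note: higher luciferase means less miR-122 activity so hits act as miR-122 inhibitors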
PGC1a acetyl inh = PGC1a acetylation modulation, inhibitor mode | U2OS PGC1a acetylation, AlphaScreen anti-acetyl-lysine; with virally co-expressed GCN5 acetyltransferase | inhibition, % at 15.6 µM | 350,000 tested, 0.17% active;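 active = every replicate shows inhibition of at least 40%; inconclusive = mean inhibition at least 40% but some replicate below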;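 note: 0% = neutral control wells and 100% = positive control wells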
MITF TRPM1 inh = inhibitors of MITF-driven TRPM1 promoter in melanoma cells; SK-MEL-5 TRPM1 promoter luciferase, 24 h; inhibition, % at 12.5 µM; 330,000 tested, 0.83% active;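 active = mean inhibition across replicates of 60% or more, whatever share of single replicates reaches that level; inconclusive = some that reach 60%, reason not given; inactive = mean inhibition across replicates below 60%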
MITF TRPM1 HTS = increases MITF-driven TRPM1 promoter luciferase signal; SK-MEL-5 TRPM1-promoter luciferase, 24 h; % of positive control, neutral wells = 0; activation, % at 12.5 µM; 300,000 tested, 0.75% active;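 active = mean activation of at least 80% with every replicate also reaching 80%; inconclusive = mean reaches 80% but some replicate falls short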;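 note: 0% = neutral control wells and 100% = parthenolide positive control wells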
Wnt bcat act = Wnt/beta-catenin pathway activation; Wnt/beta-catenin reporter cell assay, activator, plate reader; activation, % at 9.35 µM; 300,000 tested, 1.2% active; AID 743398; in the data active = activation above about 30%, passing the limit was not always enough; inconclusive = no clear call, values can overlap the other calls;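 note: 0% = neutral control wells and 100% = positive control wells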
Yeast UUG start = modulators of start codon recognition fidelity in yeast; AID 602363; activity score, % at 18.7 µM; S. cerevisiae UUG-firefly luciferase reporter, luminescence/redox ratio; actives 0.13% (n = 350,000);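 active = replicate mean at a twofold rise or more, about +100% in these data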;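 note: firefly luciferase made from a UUG start codon reports start codon fidelity; reporter light over untreated wells divided by growth signal over untreated wells; some hits fall short of that in this replicate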
The depositor's hits bear a star; u = inconclusive; x = no result given; [ ] = dose if it differs, or a comment.

| item | canonical_smiles | miR122 inh | PGC1a acetyl inh | MITF TRPM1 inh |
| --- | --- | --- | --- | --- |
| 1 | Cc1[nH]c2ccccc2c1C(=O)COC(=O)c1ccccc1O | 2.1 | -0.7 | -108.9 |
| 2 | COc1cccc(C(=O)OCC(=O)c2c[nH]c3ccccc23)c1OC | 3.4 | -3.7 | -51.0 |
| 3 | COc1ccc(C(=O)COC(=O)c2ccccc2O)c(OC)c1 | 4.6 | -1.5 | -56.6 |
| 4 | COc1ccc(C(=O)OCC(=O)c2c[nH]c3ccccc23)c(OC)c1 | 12.8 | -2.7 | -67.0 |
| 5 | CNC[C@@H]1OCCCC[C@H](C)Oc2ccc(NC(=O)CCC(F)(F)F)cc2C(=O)N([C@H](C)CO)C[C@H]1C | -3.0[16.7 µM] | 8.6 | x |
| 6 | O=C(C[C@@H]1CC[C@H]2[C@@H](COC[C@@H](O)CN2S(=O)(=O)c2ccccc2)O1)N1CCc2ccccc2C1 | 1.8[16.7 µM] | 0.7 | x |
| 7 | COc1ccc(NC(=O)N[C@@H]2CC[C@@H](CCNC(=O)CCN3CCCCC3)O[C@H]2CO)cc1 | 24.0[16.7 µM] | -9.7 | x |
| 8 | O=C(Nc1cc(Cl)cc(Cl)c1)N[C@@H]1CC[C@@H](CCNS(=O)(=O)c2cccc(F)c2)O[C@H]1CO | x | 1.1 | x |
| 9 | C[C@@H]1CCCCO[C@@H](CN(C)S(=O)(=O)c2cn(C)cn2)[C@@H](C)CN([C@H](C)CO)C(=O)c2cc(NC(=O)CCC(F)(F)F)ccc2O1 | 9.5[16.7 µM] | x | x |
| 10 | CN(C)CCCNc1c2ccccc2nc2ccccc12 | -8.0 | 25.5 | u |

| item | MITF TRPM1 HTS | Wnt bcat act | Yeast UUG start |
| --- | --- | --- | --- |
| 1 | 110.8* | -1.0 | -20.8 |
| 2 | 52.6 | 5.5 | -18.1 |
| 3 | 65.0 | 50.3* | -21.8 |
| 4 | 68.9 | 36.1* | -7.2 |
| 5 | x | x | 1.1 |
| 6 | x | x | 18.2 |
| 7 | x | x | 2.4 |
| 8 | x | x | 0.0 |
| 9 | x | x | 0.4 |
| 10 | -65.8 | 10.5 | 11.3 |

(continued)
| item | canonical_smiles | miR122 inh | PGC1a acetyl inh | MITF TRPM1 inh |
| --- | --- | --- | --- | --- |
| 11 | Oc1ccc(CCNc2c3ccccc3nc3ccccc23)cc1O | x | x | 72.0* |
| 12 | c1ccc(CNc2c3ccccc3nc3ccccc23)cc1 | x | x | 75.5* |
| 13 | O=S(=O)(Nc1cccc(-n2cnnn2)c1)c1cc(Br)ccc1Br | 108.4* | -4.8 | 5.0 |
| 14 | O=S(=O)(Nc1cccc(-n2cnnn2)c1)c1ccccc1 | 12.8 | 7.0 | 13.0 |
| 15 | N#CC(c1nc2ccccc2nc1N1CCCC1)S(=O)(=O)c1ccccc1 (stereo not given) | 16.6 | 1.1 | -9.9 |
| 16 | Cc1cccc(S(=O)(=O)C(C#N)c2nc3ccccc3nc2N2CCCC2)c1 (stereo not given) | 118.6* | 13.6 | 3.5 |
| 17 | COc1ccc(-c2ccc([C@@H]3[C@@H](CO)N4C(=O)CN(C(=O)c5ccccn5)C[C@H]34)cc2)cc1 | x | -2.5 | x |
| 18 | CC(C)(C)C(=O)/C(=C/c1ccncc1)n1cncn1 | x | x | 81.6* |
| 19 | Cc1ccc2sc(N(CCCN(C)C)C(=O)c3ccc(S(=O)(=O)N(C)Cc4ccccc4)cc3)nc2c1C | x | x | 77.9* |
| 20 | CCOc1cccc2sc(N(CCCN(C)C)C(=O)c3ccc(S(=O)(=O)N(CC)Cc4ccccc4)cc3)nc12 | -8.7 | -12.9 | 56.9 |

| item | MITF TRPM1 HTS | Wnt bcat act | Yeast UUG start |
| --- | --- | --- | --- |
| 11 | x | 0.1 | -5.2 |
| 12 | -73.7 | -1.1 | -15.8 |
| 13 | -5.4 | 2.1 | -7.9 |
| 14 | -9.7 | -2.1 | -21.0 |
| 15 | 9.6 | x | -13.6 |
| 16 | -4.9 | x | -7.9 |
| 17 | x | x | x |
| 18 | -79.8 | -21.2 | x |
| 19 | -76.9 | -12.6 | -1.5 |
| 20 | -57.1 | -2.1 | 7.5 |

Shown bar-delimited: entries from further up.
entry | smiles | miR122 inh | PGC1a acetyl inh | MITF TRPM1 inh | MITF TRPM1 HTS | Wnt bcat act | Yeast UUG start
17 | COc1ccc(-c2ccc([C@@H]3[C@@H](CO)N4C(=O)CN(C(=O)c5ccccn5)C[C@H]34)cc2)cc1 | x | -2.5 | x | x | x | x
18 | CC(C)(C)C(=O)/C(=C/c1ccncc1)n1cncn1 | x | x | 81.6* | -79.8 | -21.2 | x

Additional results follow.
| item | canonical_smiles | miR122 inh | PGC1a acetyl inh | MITF TRPM1 inh |
| --- | --- | --- | --- | --- |
| 21 | CN(C)CCCN(C(=O)c1ccc(S(=O)(=O)N(C)Cc2ccccc2)cc1)c1nc2cc3c(cc2s1)OCO3 | 1.6 | -12.9 | 85.1* |
| 22 | CCOc1cccc2sc(N(CCCN(C)C)C(=O)c3ccc(S(=O)(=O)N(C)Cc4ccccc4)cc3)nc12 | x | x | 94.5* |
| 23 | N#C/C(=C\c1ccc(OCc2ccccc2)cc1)C(N)=O | x | 9.4 | -61.9 |
| 24 | N#C/C(=C\c1ccc(OCc2ccc(Br)cc2)cc1)C(=O)Nc1cccc(C(=O)O)c1 | -0.5 | 7.3 | -49.0 |
| 25 | N#C/C(=C\c1ccc(OCc2ccc(F)cc2)cc1)C(=O)Nc1cccc(C(=O)O)c1 | 4.9 | 11.7 | -67.4 |
| 26 | C[C@@H]1CN([C@@H](C)CO)C(=O)Cc2cc(NC(=O)c3ccncc3)ccc2O[C@H]1CN(C)C | -3.5[16.7 µM] | 9.6 | x |
| 27 | Cc1c(C(=O)Nc2ccccc2F)cnn1-c1ccccc1 | -9.1 | 13.6 | -81.5 |
| 28 | Cc1c(C(=S)Nc2ccccc2)cnn1-c1ccccc1 | 24.5 | -1.6 | -83.2 |
| 29 | Cc1c(C(=O)Nc2cc(F)cc(F)c2)cnn1-c1ccccc1 | -12.5 | -3.2 | -120.2 |
| 30 | COc1ccc(NC(=O)c2cnn(-c3ccccc3)c2C)c(OC)c1 | 0.6 | 20.3 | 5.9 |

| item | MITF TRPM1 HTS | Wnt bcat act | Yeast UUG start |
| --- | --- | --- | --- |
| 21 | -84.9 | -0.1 | 13.7 |
| 22 | -94.3 | -1.6 | 2.7 |
| 23 | 63.1 | 40.9* | x |
| 24 | 46.7 | 29.6 | 4.9 |
| 25 | 66.0 | 50.6* | -6.3 |
| 26 | x | x | -15.3 |
| 27 | 88.4* | 10.0 | -19.7 |
| 28 | 96.4* | u | -15.0 |
| 29 | 121.1* | 57.3* | -10.0 |
| 30 | -3.0 | 0.6 | -6.7 |

Entries shown so far that contain a COOH group, in the order listed:
| item | canonical_smiles | miR122 inh | PGC1a acetyl inh | MITF TRPM1 inh |
| --- | --- | --- | --- | --- |
| 24 | N#C/C(=C\c1ccc(OCc2ccc(Br)cc2)cc1)C(=O)Nc1cccc(C(=O)O)c1 | -0.5 | 7.3 | -49.0 |
| 25 | N#C/C(=C\c1ccc(OCc2ccc(F)cc2)cc1)C(=O)Nc1cccc(C(=O)O)c1 | 4.9 | 11.7 | -67.4 |

| item | MITF TRPM1 HTS | Wnt bcat act | Yeast UUG start |
| --- | --- | --- | --- |
| 24 | 46.7 | 29.6 | 4.9 |
| 25 | 66.0 | 50.6* | -6.3 |

The list continues:
| item | canonical_smiles | miR122 inh | PGC1a acetyl inh | MITF TRPM1 inh |
| --- | --- | --- | --- | --- |
| 31 | CCS(=O)(=O)NCC[C@H]1CC[C@H](NC(=O)C2CCCCC2)[C@@H](CO)O1 | x | 1.5 | x |
| 32 | CN(C)CCCNC(=O)C[C@@H]1CC[C@@H]2[C@@H](COc3ccc(NC(=O)C4CCC4)cc3C(=O)N2C)O1 | 6.7[16.7 µM] | 5.5 | x |
| 33 | Cc1ccccc1CSc1nnc(-c2cccs2)n1Cc1ccco1 | 29.9 | -22.1 | 0.3 |
| 34 | Cc1ccccc1CSc1nnc(-c2ccco2)n1Cc1ccco1 | 16.7 | 98.7* | -11.1 |
| 35 | CO[C@@H]1CN(C)C(=O)c2cc(NS(C)(=O)=O)ccc2OC[C@H](C)N(S(C)(=O)=O)C[C@H]1C | -0.6[16.7 µM] | -2.7 | x |
| 36 | COc1ccc(C2CC(c3ccc4ccccc4c3OC(C)=O)=NN2C(C)=O)cc1 (stereo not given) | 4.1 | 7.1 | -49.7 |
| 37 | COc1ccc(C2CC(c3ccc(C)o3)=NN2C(C)=O)cc1 (stereo not given) | x | x | -63.5 |
| 38 | COc1ccc(C2CC(c3ccc4ccccc4c3)=NN2C(=O)COC(=O)C2CCC(=O)N2)cc1 (stereo not given) | x | -7.3 | -74.8 |
| 39 | CO[C@H]1CN(C)C(=O)c2cc(NC(=O)NC(C)C)ccc2OC[C@@H](C)N(C)C[C@H]1C | 6.3[16.7 µM] | 3.9 | x |
| 40 | CCCC(=O)N1CCC2(CC1)CN(C(=O)Nc1c(C)noc1C)[C@@H](CO)c1c2c2ccc(OC)cc2n1C | x | -1.5 | x |

| item | MITF TRPM1 HTS | Wnt bcat act | Yeast UUG start |
| --- | --- | --- | --- |
| 31 | x | x | x |
| 32 | x | x | -8.6 |
| 33 | 1.2 | -2.5 | -16.0 |
| 34 | 14.9 | -6.3 | x |
| 35 | x | x | -1.3 |
| 36 | x | 58.2* | -2.5 |
| 37 | 63.5 | 10.6 | x |
| 38 | 74.7 | 45.4* | -3.4 |
| 39 | x | x | -14.7 |
| 40 | x | x | x |

Further results follow:
| item | canonical_smiles | miR122 inh | PGC1a acetyl inh | MITF TRPM1 inh |
| --- | --- | --- | --- | --- |
| 41 | C=CCc1ccc(OCC(O)CO)c(OC)c1 (stereo not given) | x | x | -1.6 |
| 42 | C=CCc1ccc(OCC(O)COCC)c(OC)c1 (stereo not given) | 0.9 | -13.3 | -93.9 |
| 43 | COc1ccccc1CNC(=O)COc1ccccc1C(=O)c1cnn(-c2ccccc2)c1 | x | -4.9 | -85.0 |
| 44 | CC(C)NCC(O)Cn1c2c(c3ccccc31)CCc1c-2cnn1-c1ccccc1 (stereo not given) | -30.0 | -23.3 | 85.3* |
| 45 | CN1CCc2c(n(CC(O)CNCc3ccccc3)c3ccccc23)C1=O (stereo not given) | x | x | 2.4 |
| 46 | O[C@@H]1COC(Nc2ccc(N=Nc3ccccc3)cc2)C[C@@H]1O (stereo not given in full) | x | x | x |
| 47 | CCOc1cnc(-c2ccc(Cl)cc2)o1 | 0.4 | 26.5 | -61.9 |
| 48 | CCOc1cnc(-c2ccc(OC)cc2)o1 | -6.1 | -8.9 | -86.2 |

| item | MITF TRPM1 HTS | Wnt bcat act | Yeast UUG start |
| --- | --- | --- | --- |
| 41 | 3.4 | -1.5 | 4.8 |
| 42 | 92.7* | x | -3.8 |
| 43 | 88.6* | 57.6* | -11.6 |
| 44 | -85.1 | x | -4.1 |
| 45 | -1.0 | -2.0 | x |
| 46 | x | 46.2* | x |
| 47 | 63.5 | x | x |
| 48 | 91.6* | x | -1.8 |
